Laboratory results: patent publication US7476650B2, “Enzyme inhibition” (Yale University, priority 1999, dated 2009)

The chains behind the UniProt entries cited, without tags or fusion partners. Where a name states a change or a piece, a line headed by the entry shows the natural chain unless it says otherwise.
UniProt Q2TBP0: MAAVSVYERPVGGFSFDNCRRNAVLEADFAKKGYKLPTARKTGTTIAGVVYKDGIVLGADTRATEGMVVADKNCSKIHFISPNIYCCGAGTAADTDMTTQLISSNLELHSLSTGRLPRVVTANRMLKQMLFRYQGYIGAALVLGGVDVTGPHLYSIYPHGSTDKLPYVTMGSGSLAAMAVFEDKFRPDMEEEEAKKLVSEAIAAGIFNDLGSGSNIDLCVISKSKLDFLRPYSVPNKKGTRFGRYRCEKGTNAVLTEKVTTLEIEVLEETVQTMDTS

Experiments:
cathepsin B = cathepsin B (Homo sapiens, UniProt P07858); assay: Cathepsin B inhibition assay; details: at concentrations up to 50 μM
[1] = biological target: T1, trypsin-like activity of purified bovine erythrocyte 20S proteasome (Bos taurus, UniProt Q2TBP0); assay: Enzyme kinetic assay, trypsin-like activity (Boc-LRR-AMC); type: biochemical; details: pH 8; Table 4; inhibitor concentration range in parentheses; read-out: kassoc = kobs/[I] Trypsin-like activity
T1 construct: from tissue; host or cells: bovine erythrocytes (red blood cells)

Row | SMILES | inhibitory activity against cathepsin B (cathepsin B) | kinact/KI [1] [M⁻¹ s⁻¹]
1 | CC[C@H](C)[C@H](NC(=O)[C@H]([C@@H](C)CC)N(C)C(C)=O)C(=O)N[C@H](C(=O)N[C@@H](CC(C)C)C(=O)[C@@]1(C)CO1)[C@@H](C)O [epoxomicin] | did not display any inhibitory activity | –
2 | CC(C)C[C@H](NC(=O)[C@H](Cc1ccccc1)NC(=O)c1cnccn1)B(O)O [reference compound] | – | 150
